Values of other authors, collected in publication PMC2901243 (Nuclear medicine and biology, 2010).

Protein sequences, listed by entry. Tags and fused reporters are not part of them. Lines headed by an entry give the natural chain unless they say otherwise; changes in a name come on top.
UniProt P30680: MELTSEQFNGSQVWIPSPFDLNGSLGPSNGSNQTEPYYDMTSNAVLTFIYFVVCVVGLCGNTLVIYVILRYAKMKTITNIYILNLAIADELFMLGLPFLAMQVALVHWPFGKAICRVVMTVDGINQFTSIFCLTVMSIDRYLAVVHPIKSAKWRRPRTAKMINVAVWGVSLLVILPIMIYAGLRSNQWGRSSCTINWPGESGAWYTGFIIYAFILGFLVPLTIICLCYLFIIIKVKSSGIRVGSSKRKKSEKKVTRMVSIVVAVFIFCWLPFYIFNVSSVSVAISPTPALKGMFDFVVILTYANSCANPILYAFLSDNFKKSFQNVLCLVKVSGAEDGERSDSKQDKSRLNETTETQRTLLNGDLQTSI

Target: SSTR2 (Rattus norvegicus, UniProt P30680)
Conditions: read-out: IC50 of Re-cyclized; Re-cyclized TATE; ref [14]; cited from earlier work

Substance: DPhe-Cys-Tyr-DTrp-Lys-Thr-Cys-Thr(OH) [Re-TATE]
- IC50: 29 nM
